Values of other authors as cited in patent publication US9420796B2 (priority 2013, dated 2016).

Test system: zebra mussels
Conditions: in vivo; cited from earlier work

sodium chlorite [NaClO2]
Mortality rate: ≤ 10%
